Results reported in patent US10537520B2, “Stable liquid formulations of melphalan” (dated 2020).

Experiment: Solubility studies in various solvents
Conditions: 25° C.

Q: Which results are given for Melphalan Hydrochloride?
A: Solubility Result (100 mg in DMA 0.3 mL + Propylene Glycol 0.05 mL + Ethanol 0.65 mL): Clear; Solubility Result (100 mg in DMA 0.5 mL + Ethanol 0.5 mL): Clear; Solubility Result (100 mg in DMA 1.1 mL): Clear; Solubility Result (100 mg in Ethanol 1 mL): Hazy solution; Solubility Result (100 mg in PEG-400 0.1 mL + Propylene Glycol 0.9 mL): Clear; Solubility Result (100 mg in PEG-400 0.2 mL + Propylene Glycol 0.8 mL): Clear; Solubility Result (100 mg in PEG-400 0.5 mL + Propylene Glycol 0.5 mL): Clear; Solubility Result (100 mg in PEG-400 0.7 mL + Propylene Glycol 0.3 mL): Clear; Solubility Result (100 mg in PEG-400 0.9 mL + Propylene Glycol 0.1 mL): Clear; Solubility Result (100 mg in PEG-400 1.0 mL + Propylene Glycol 0 mL): Clear after; Solubility Result (100 mg in Propylene Glycol 1 mL): Not Clear
